Measurements from PubChem BioAssay (Tox21).
Values joined by “and” are separate entries in the source; they are usually repeats but may differ in a detail not shown here. Equal entries are not always repeated. The entries are a selection whose mix differs from that of the whole data set. Some compounds were tested as several samples or in several runs, with calls that do not always agree. Active and inactive are the calls of the source. The call rests on the fitted dose curve.

Assay: G protein-coupled receptor (GPCR) small molecule agonists, calcium flux assay: HEK293 wild type cell line counter screen (AID 1920065)
Details: HEK293 WT calcium flux, fluorescence, agonist mode; series mostly up to 57.6 µM; activation: at the top concentration
Excerpt: U.S. Tox21 Program National Center for Advancing Translational Sciences [NCATS] Division of Preclinical Innovation [DPI] U.S. Environmental Protection Agency [EPA] National Institutes of Environmental Health Sciences [NIEHS] National Toxicology Program [NTP] U.S. Food and Drug Administration [FDA] Assay overview: The increased intracellular calcium release that occurred upon G protein-coupled receptor (GPCR) activation led to the frequent use of calcium flux assays to detect GPCR activation. For the purpose of studying and screening compounds that may activate GPCR, receptor-overexpressing models were typically generated using Hek293 wild-type (WT) cells. In order to eliminate the compounds that may have induced calcium release for non-specific activation, a counter-assay utilizing calcium flux on Hek293 WT cells was performed. The data were formulated in order to serve as a control for any calcium flux detection utilizing Hek293 cells with either GPCR overexpression or gene modification. The procurement of Hek293 WT cells from ATCC. Fluorescence intensity can be utilized to determine the activation of the compound in a calcium flux assay. As a counter control, this cell line was utilized to screen the Tox21 10K compound library.
Assay Protocol Summary: Hek293 cells were dispensed at 1500cells/4uL/well in 1536-well black wall/clear bottom plates using a multidrop dispenser. After the assay plates were incubated at a 37 C/5% CO2 incubator for 18 hours, 4 uL of Calcium Dye Solution was added to each well. The plates were incubated at 37 C for 1 hour. For agonist mode, 23 nL of compounds dissolved in DMSO, positive control (ATP) or DMSO only was transferred to the assay plate by a pin tool station. The fluorescence intensity in the plates was measured using FDSS 7000EX kinetic plate reader with a filter set of Ex/Em=480/540 for 3 min at 1 sec intervals. Each test compound was measured at 15 concentrations and in triplicates.
On the % scale 0 is the no-effect control and ±100 the full control effect; potency means the concentration at half of the fitted maximal effect.

**Q.** Which “activation” value does the source give for `CN(C(=O)Cc1ccccc1)[C@H]1CC[C@@]2(CCCO2)C[C@@H]1N1CCCC1` here?
**A.** inactive: 0.745% [at 26.5 µM]

**Q.** With `ClP(Cl)c1ccccc1` as the compound, how does the “activation” value read?
**A.** inactive: 0.549%

**Q.** Which Potency does the source give for `O=C1C2CC=CCC2C(=O)N1SC(Cl)(Cl)C(Cl)Cl` (centres undefined) here?
**A.** inactive and active: 38.9 µM

**Q.** For `CCCCC(CC)CO[P+](=O)OCC(CC)CCCC` (centres undefined), which “activation” value is on record?
**A.** inactive: -0.783%

**Q.** With `CCC(C)(OOC(C)(C)C)OOC(C)(C)C` as the compound, how does the activation read?
**A.** inactive: 0.47% [at 11.8 µM]

**Q.** For `CN(C(=O)Cc1ccc(Cl)c(Cl)c1)[C@H]1CC[C@@]2(CCCO2)C[C@@H]1N1CCCC1`, which “activation” value is on record?
**A.** inactive: 1.46% [at 26.5 µM]

**Q.** For `O=P(Cl)(Oc1ccccc1)Oc1ccccc1`, which “activation” value is on record?
**A.** inactive: -0.0654%

**Q.** Which “activation” value does the source give for `COP(=S)(Cl)OC` here?
**A.** inactive: -0.396%

**Q.** Which “activation” value does the source give for `CCCCOP(OCCCC)OCCCC` here?
**A.** inactive: 0.146%

**Q.** With `CCOC(=O)Cl` as the compound, how does the “activation” value read?
**A.** inactive: 0.139%

**Q.** With `O=[N+]([O-])c1ccc(S(=O)(=O)O)c([N+](=O)[O-])c1` as the compound, how does the “activation” value read?
**A.** inactive: -0.325%

**Q.** Which “activation” value does the source give for `O=P(Cl)(Cl)c1ccccc1` here?
**A.** inactive: -0.868%

**Q.** Which “activation” value does the source give for `CN(C(=O)Cc1cccc2occc12)[C@H]1CC[C@@]2(CCCO2)C[C@@H]1N1CCCC1` here?
**A.** inactive: 0.939%

**Q.** With `CC(C)OP(=S)(OC(C)C)SCCNS(=O)(=O)c1ccccc1` as the compound, how does the “activation” value read?
**A.** inactive: -1.45%

**Q.** With `O=C(Cl)Oc1ccccc1` as the compound, how does the “activation” value read?
**A.** inactive: -1.05%

**Q.** Which “activation” value does the source give for `CN(N=O)C(=N)N[N+](=O)[O-]` here?
**A.** inactive: 0.192%

**Q.** With `Cc1cc([N+](=O)[O-])c(O)c([N+](=O)[O-])c1` as the compound, how does the “activation” value read?
**A.** inactive: -0.494%

**Q.** For `CC(C)CCCCCCCOP(OCCCCCCCC(C)C)Oc1ccccc1`, which “activation” value is on record?
**A.** inactive: 1.09%

**Q.** Which “activation” value does the source give for `O=[N+]([O-])c1ccc([N+](=O)[O-])cc1` here?
**A.** inactive: -0.527%

**Q.** For `CCCCCCCCCCCCCC[P+](CCCCCC)(CCCCCC)CCCCCC`, which “activation” value is on record?
**A.** inactive: 2.51%

**Q.** For `N#CSc1ccc([N+](=O)[O-])cc1[N+](=O)[O-]`, which “activation” value is on record?
**A.** inactive: 16.8%

**Q.** For `O=[p+]1oc2ccccc2c2ccccc21` (centres undefined), which “activation” value is on record?
**A.** inactive: -0.196%

**Q.** Which “activation” value does the source give for `CCOP(=S)(CC)Sc1ccccc1` (centres undefined) here?
**A.** inactive: -2.61%

**Q.** Which “activation” value does the source give for `COC(=O)Cl` here?
**A.** inactive: -0.367%

**Q.** With `CCCCO[P+](=O)OCCCC` as the compound, how does the Potency read?
**A.** inactive

**Q.** Which “activation” value does the source give for `O=[P+](Oc1ccccc1)Oc1ccccc1` here?
**A.** inactive: 0.0147%

**Q.** Which Potency does the source give for `NC(=O)Nc1ccc([As](=O)(O)O)cc1` here?
**A.** inactive

**Q.** Which “activation” value does the source give for `CCNC(C)Cc1ccc2c(c1)OCO2` (centres undefined) here?
**A.** inactive: 0.172%

**Q.** Which “activation” value does the source give for `O=C(Cl)OCCOC(=O)Cl` here?
**A.** inactive: 0.931%
